Drawing on ChEMBL document CHEMBL1133118 (J Med Chem, 2000), this text covers Ki for one compound.

Structures are written as SMILES.

By Ki is commonly meant a measure of affinity in units of concentration, obtained from inhibition or displacement.

This experiment has as its target T1, Adenosine receptor A2b (Homo sapiens, UniProt P29275).
T1 sequence (P29275 whole entry): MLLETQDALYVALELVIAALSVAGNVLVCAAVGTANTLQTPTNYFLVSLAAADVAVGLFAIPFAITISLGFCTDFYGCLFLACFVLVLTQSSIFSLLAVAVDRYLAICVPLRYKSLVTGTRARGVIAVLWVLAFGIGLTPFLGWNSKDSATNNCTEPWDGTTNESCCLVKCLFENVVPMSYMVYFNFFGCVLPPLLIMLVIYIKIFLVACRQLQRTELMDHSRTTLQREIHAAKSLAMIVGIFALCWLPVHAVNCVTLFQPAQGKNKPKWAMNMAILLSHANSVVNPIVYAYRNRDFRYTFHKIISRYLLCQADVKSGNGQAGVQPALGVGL
The experiment is described as follows: biochemical.

For `Nc1nc2ccc(Cl)cc2c2nc(-c3ccco3)nn12` [CGS-15943], the Ki came to 23 nM.
